Each structure is given as a SMILES string.

Sequences of proteins named here, by UniProt entry; tags and fusion partners are left off. A change or cut given only in a name is not applied to a line headed by its entry.
UniProt Q16539, whole entry: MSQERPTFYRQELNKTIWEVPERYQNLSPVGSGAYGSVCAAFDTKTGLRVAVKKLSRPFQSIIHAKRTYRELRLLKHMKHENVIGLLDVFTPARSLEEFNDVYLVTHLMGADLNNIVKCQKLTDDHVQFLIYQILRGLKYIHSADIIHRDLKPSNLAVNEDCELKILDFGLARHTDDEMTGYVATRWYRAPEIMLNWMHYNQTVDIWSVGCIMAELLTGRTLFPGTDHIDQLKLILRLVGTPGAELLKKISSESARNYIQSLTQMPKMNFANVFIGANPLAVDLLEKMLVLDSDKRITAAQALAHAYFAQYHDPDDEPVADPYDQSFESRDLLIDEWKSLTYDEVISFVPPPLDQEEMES
UniProt P50750, whole entry: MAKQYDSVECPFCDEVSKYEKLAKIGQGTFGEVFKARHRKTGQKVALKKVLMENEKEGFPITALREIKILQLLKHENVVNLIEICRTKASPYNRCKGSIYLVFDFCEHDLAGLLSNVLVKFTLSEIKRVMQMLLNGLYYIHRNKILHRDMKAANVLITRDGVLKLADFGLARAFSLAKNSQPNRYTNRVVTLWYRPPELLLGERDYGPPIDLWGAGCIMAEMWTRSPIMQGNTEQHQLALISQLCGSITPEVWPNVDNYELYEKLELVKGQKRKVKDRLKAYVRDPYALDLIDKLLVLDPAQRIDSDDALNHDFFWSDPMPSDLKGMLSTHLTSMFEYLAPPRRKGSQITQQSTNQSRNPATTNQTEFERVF
UniProt Q2M2I8: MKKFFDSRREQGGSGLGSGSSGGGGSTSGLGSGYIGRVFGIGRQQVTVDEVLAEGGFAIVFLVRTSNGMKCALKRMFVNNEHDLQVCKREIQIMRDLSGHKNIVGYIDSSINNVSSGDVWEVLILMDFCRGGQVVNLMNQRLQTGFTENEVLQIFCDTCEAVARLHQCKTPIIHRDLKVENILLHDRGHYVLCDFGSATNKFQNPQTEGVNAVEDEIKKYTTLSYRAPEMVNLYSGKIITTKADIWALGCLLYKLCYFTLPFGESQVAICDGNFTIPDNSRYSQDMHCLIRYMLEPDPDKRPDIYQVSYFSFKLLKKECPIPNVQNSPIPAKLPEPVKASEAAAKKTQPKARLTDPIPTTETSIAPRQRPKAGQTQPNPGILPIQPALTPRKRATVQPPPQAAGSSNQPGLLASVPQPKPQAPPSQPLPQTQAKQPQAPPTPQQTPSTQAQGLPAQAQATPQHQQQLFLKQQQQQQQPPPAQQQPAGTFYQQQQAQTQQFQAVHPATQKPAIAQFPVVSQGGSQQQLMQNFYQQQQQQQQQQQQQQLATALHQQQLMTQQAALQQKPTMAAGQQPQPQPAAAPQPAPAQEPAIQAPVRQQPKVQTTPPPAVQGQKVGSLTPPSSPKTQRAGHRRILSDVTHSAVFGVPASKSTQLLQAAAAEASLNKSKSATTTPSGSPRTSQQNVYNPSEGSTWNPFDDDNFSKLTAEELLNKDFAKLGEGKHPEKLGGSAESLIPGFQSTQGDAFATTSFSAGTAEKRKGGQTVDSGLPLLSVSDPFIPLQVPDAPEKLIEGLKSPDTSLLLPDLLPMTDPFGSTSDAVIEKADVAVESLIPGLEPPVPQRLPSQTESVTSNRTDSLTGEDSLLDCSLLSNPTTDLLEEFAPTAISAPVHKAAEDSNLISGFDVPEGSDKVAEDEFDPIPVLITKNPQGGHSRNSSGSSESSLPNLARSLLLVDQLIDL
UniProt P41240: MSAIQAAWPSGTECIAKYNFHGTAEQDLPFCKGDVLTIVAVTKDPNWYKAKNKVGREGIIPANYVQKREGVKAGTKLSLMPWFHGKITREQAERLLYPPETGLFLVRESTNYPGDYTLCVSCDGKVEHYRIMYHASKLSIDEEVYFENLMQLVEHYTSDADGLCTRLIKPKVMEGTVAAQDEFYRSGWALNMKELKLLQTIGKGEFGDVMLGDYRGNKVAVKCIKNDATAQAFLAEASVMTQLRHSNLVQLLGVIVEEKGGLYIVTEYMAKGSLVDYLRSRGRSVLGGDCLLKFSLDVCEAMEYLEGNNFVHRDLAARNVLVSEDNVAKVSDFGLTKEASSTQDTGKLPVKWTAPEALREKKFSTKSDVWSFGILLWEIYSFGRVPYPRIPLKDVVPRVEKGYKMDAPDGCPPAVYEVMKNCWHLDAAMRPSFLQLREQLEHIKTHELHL
UniProt P49759: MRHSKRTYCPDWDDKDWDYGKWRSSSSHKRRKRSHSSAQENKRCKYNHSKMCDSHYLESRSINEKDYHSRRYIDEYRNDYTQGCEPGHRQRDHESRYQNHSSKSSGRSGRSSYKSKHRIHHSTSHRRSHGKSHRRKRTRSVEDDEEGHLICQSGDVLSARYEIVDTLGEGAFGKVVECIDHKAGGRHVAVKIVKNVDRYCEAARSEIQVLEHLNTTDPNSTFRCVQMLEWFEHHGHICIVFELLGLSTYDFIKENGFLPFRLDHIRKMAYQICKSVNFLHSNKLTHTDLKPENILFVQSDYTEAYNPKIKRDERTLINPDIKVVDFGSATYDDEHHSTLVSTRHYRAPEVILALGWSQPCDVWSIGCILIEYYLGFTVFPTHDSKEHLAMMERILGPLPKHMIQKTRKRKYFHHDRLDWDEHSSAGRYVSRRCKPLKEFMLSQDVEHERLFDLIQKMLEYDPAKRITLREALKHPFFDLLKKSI
UniProt O00506, whole entry: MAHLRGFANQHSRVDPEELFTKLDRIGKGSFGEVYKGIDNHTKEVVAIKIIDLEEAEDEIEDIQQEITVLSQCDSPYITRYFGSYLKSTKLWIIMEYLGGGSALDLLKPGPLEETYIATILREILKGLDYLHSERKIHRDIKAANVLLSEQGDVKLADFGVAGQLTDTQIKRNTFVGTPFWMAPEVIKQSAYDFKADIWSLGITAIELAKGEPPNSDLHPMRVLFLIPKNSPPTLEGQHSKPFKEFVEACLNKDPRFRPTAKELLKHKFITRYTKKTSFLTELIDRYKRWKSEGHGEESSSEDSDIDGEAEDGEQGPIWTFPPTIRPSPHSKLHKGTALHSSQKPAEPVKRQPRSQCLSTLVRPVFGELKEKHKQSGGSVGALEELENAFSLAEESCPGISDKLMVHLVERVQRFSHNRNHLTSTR
UniProt Q16816: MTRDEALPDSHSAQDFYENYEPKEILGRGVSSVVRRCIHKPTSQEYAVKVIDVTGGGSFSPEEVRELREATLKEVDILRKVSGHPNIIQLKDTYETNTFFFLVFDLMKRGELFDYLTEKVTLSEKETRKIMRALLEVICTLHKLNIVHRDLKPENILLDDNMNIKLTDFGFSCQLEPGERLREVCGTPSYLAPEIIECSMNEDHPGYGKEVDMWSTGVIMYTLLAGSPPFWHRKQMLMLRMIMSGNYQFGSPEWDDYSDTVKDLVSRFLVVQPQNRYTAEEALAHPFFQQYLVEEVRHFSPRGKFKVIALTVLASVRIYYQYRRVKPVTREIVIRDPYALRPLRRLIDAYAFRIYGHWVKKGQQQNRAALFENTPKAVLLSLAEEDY
UniProt Q13153, whole entry: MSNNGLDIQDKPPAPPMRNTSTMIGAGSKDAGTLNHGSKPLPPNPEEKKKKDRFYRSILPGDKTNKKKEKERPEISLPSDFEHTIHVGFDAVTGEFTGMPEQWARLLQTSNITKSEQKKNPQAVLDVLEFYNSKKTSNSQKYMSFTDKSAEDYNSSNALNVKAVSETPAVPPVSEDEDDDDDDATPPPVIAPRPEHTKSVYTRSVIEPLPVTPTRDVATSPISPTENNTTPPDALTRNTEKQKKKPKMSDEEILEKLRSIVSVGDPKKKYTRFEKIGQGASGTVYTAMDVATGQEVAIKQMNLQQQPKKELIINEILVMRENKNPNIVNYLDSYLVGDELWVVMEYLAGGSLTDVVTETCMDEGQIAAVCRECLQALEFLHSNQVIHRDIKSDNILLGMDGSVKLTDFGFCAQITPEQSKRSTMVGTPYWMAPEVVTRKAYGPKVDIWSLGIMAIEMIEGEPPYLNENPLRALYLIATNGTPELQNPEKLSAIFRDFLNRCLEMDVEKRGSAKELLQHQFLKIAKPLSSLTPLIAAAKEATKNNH

Experiment [1] has as its target Mitogen-activated protein kinase 14 (Homo sapiens, UniProt Q16539).
The target in experiment [2] is Cyclin-dependent kinase 9 (Homo sapiens, UniProt P50750).
Experiment [3] deals with AP2-associated protein kinase 1 (Homo sapiens, UniProt Q2M2I8).
Experiment [4] addresses Tyrosine-protein kinase CSK (Homo sapiens, UniProt P41240).
Experiment [5] concerns the target Dual specificity protein kinase CLK1 (Homo sapiens, UniProt P49759).
The target of experiment [6] is Serine/threonine-protein kinase 25 (Homo sapiens, UniProt O00506).
The target in experiment [7] is Phosphorylase b kinase gamma catalytic chain, skeletal muscle/heart isoform (Homo sapiens, UniProt Q16816).
Another experiment has as its target T1, Ephrin type-A receptor 8 (Homo sapiens, UniProt P29322).
T1 sequence (P29322 whole entry): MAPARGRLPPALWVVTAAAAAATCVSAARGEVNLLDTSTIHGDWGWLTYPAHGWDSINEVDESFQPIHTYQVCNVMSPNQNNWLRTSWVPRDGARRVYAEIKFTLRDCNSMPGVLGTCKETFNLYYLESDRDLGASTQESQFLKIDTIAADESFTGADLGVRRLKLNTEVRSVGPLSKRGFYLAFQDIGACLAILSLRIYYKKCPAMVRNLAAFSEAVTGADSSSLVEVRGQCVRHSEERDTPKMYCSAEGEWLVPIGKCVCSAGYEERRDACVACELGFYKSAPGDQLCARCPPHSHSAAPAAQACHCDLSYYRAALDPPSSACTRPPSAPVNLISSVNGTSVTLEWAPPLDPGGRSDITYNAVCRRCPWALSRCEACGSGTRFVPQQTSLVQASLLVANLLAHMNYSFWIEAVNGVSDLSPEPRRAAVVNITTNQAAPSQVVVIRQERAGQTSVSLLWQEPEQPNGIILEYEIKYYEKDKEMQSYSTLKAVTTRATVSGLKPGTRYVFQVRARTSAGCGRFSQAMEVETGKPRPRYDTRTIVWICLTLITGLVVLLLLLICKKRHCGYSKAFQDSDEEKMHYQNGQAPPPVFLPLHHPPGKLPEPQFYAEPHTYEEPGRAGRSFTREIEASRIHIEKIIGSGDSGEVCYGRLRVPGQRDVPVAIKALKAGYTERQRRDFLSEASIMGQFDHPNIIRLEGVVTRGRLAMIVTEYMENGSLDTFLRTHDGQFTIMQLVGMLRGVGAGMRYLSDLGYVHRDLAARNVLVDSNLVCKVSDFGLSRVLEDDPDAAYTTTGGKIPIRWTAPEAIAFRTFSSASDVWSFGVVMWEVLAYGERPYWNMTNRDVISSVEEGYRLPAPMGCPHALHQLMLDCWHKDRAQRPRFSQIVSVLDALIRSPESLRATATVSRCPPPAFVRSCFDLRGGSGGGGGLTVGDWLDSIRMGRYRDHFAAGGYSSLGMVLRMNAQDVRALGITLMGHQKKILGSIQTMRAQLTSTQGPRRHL

Experiment [8] concerns the target Serine/threonine-protein kinase PAK 1 (Homo sapiens, UniProt Q13153).

Take `NC(=O)c1ccc(-c2nc(-c3ccc4c(c3)OCO4)c(-c3ccccn3)[nH]2)cc1` [SB-431542]: in experiment [1], the dissociation constant Kd (in general, a measure of binding affinity in units of concentration) was more than 10 µM.
For `COCC(=O)NC/C=C/c1ccc2ncnc(Nc3ccc(Oc4ccc(C)nc4)c(C)c3)c2c1` [CP-724714], the dissociation constant Kd in experiment [2] is more than 10 µM.
Consider `CCOc1cc2ncc(C#N)c(Nc3ccc(F)c(Cl)c3)c2cc1NC(=O)/C=C/CN(C)C` [PELITINIB], for which the Kd in experiment [3] was 3.5 µM; in [4], 3.4 µM; in experiment [5] it was 3.3 µM; in experiment [6], 3.4 µM; in experiment [7], 3.5 µM; in [2], more than 10 µM. For the same compound, the Kd at Ephrin type-A receptor 8 came out at 3.3 µM; in [8] it was 3.4 µM.
